Only a part is listed here, and it is no random draw. Active and inactive are the calls of the source.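 How the source made its calls: active means inhibition above about 50% at the single test dose (limit read from the data); inactive means the rest.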

Chains of the proteins cited; added tags and fusions are not shown. Residues count along the entry.
UniProt Q9BQF6, 706-1050 limits assumed: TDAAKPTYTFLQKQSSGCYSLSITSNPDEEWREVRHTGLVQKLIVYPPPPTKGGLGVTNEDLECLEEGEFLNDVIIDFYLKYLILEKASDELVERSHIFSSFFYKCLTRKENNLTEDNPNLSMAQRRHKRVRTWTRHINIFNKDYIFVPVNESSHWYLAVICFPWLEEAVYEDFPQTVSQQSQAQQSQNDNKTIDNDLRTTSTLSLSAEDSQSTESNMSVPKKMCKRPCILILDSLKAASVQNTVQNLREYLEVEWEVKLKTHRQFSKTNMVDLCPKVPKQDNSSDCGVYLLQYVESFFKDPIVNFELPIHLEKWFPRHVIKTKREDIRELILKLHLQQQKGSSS

As usually defined, the inhibition is how much of the control response was suppressed.

The assay has as its target Sentrin-specific protease 7 (Homo sapiens) (UniProt Q9BQF6). As to the kind of experiment: SENP7 protease inhibitors, primary screen, biochemical, luminescence, uHTS (AID 434973).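 Further: plate controls were DMSO with enzyme for no effect and no enzyme buffer wells for full effect.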 Conditions: recombinant SENP7, Z-RLRGG-aminoluciferin luminescence, 40 min; at 5 µM; active compounds read high.
For the compound `CC(C)=N/N=C(\N)N[N+](=O)[O-]`, the inhibition is inactive: 10.7%.

Values taken from PubChem BioAssay AID434973 (Sanford-Burnham Center for Chemical Genomics, 2010).
